Reference: ChEMBL document CHEMBL4311942, “Design of Trp-Rich Dodecapeptides with Broad-Spectrum Antimicrobial Potency and Membrane-Disruptive Mechanism” (J Med Chem, 2019)
≈ marks a conversion by molar mass, not a printed value.

Key:
Staphylococcus aureus [1] = test: Antibacterial activity against Staphylococcus aureus ATCC 29213 using preheated compound at 100 degreeC for 1 hr by broth microdilution method; type: functional; settings: ATCC 29213, 1 h
Staphylococcus aureus [2] = test: Antibacterial activity against Staphylococcus aureus ATCC 29213 in presence of NaBH4 by broth microdilution method; type: functional
Escherichia coli [3] = test: Antibacterial activity against Escherichia coli ATCC 25922 in presence of 50% serum by broth microdilution method; type: functional
Escherichia coli [4] = test: Antibacterial activity against Escherichia coli ATCC 25922 in presence of NaBH4 by broth microdilution method; type: functional
Staphylococcus aureus [5] = test: Antibacterial activity against Staphylococcus aureus ATCC 29213 in presence of NaCl by broth microdilution method; type: functional
Staphylococcus aureus [6] = test: Antibacterial activity against Staphylococcus aureus ATCC 29213 in presence of 12.5% serum by broth microdilution method; type: functional
Escherichia coli [7] = test: Antibacterial activity against ciprofloxacin-resistant Escherichia coli ATCC 25922 incubated for 18 to 24 hrs; type: functional
Staphylococcus aureus [8] = test: Antibacterial activity against Staphylococcus aureus ATCC 29213 in presence of CaCl2 by broth microdilution method; type: functional
Escherichia coli [9] = test: Antibacterial activity against Escherichia coli ATCC 25922 in presence of MgCl2 by broth microdilution method; type: functional
Staphylococcus aureus [10] = test: Antibacterial activity against Staphylococcus aureus ATCC 29213 in presence of FeCl3 by broth microdilution method; type: functional
Escherichia coli [11] = test: Antibacterial activity against Escherichia coli ATCC 25922 incubated for 2 hrs in presence of sodium phosphate buffer at pH 12 by broth microdilution method; type: functional; settings: ATCC 25922, 2 h
Escherichia coli [12] = test: Antibacterial activity against Escherichia coli ATCC 25922 incubated for 2 hrs in presence of sodium phosphate buffer at pH 4 by broth microdilution method; type: functional; settings: ATCC 25922, 2 h
Escherichia coli [13] = test: Antibacterial activity against Escherichia coli ATCC 25922 incubated for 18 to 24 hrs by broth microdilution method; type: functional
Staphylococcus aureus [14] = test: Antibacterial activity against Staphylococcus aureus ATCC 29213 in presence of ZnCl2 by broth microdilution method; type: functional
Salmonella typhimurium = test: Antibacterial activity against Salmonella enterica serovar typhimurium C77-31 incubated for 18 to 24 hrs by broth microdilution method; type: functional, Salmonella enterica subsp. enterica serovar Typhimurium
Escherichia coli [15] = test: Antibacterial activity against Escherichia coli ATCC 25922 in presence of CaCl2 by broth microdilution method; type: functional
Escherichia coli [16] = test: Antibacterial activity against Escherichia coli ATCC 25922 incubated for 2 hrs in presence of sodium phosphate buffer at pH 2 by broth microdilution method; type: functional; settings: ATCC 25922, 2 h
Staphylococcus aureus [17] = test: Antibacterial activity against Staphylococcus aureus ATCC 29213 incubated for 2 hrs in presence of sodium phosphate buffer at pH 12 by broth microdilution method; type: functional; settings: ATCC 29213, 2 h
Staphylococcus aureus [18] = test: Antibacterial activity against Staphylococcus aureus ATCC 25923 incubated for 18 to 24 hrs by broth microdilution method; type: functional
Staphylococcus aureus [19] = test: Antibacterial activity against Staphylococcus aureus 11011 incubated for 18 to 24 hrs by broth microdilution method; type: functional
Escherichia coli [20] = test: Antibacterial activity against Escherichia coli ATCC 25922 using preheated compound at 100 degreeC for 1 hr by broth microdilution method; type: functional; settings: ATCC 25922, 1 h
Staphylococcus aureus [21] = test: Antibacterial activity against Staphylococcus aureus ATCC 29213 in presence of H202 by broth microdilution method; type: functional
Staphylococcus aureus [22] = test: Antibacterial activity against Staphylococcus aureus ATCC 29213 in presence of 50% serum by broth microdilution method; type: functional
Staphylococcus aureus [23] = test: Antibacterial activity against Staphylococcus aureus ATCC 29213 in presence of NH4Cl by broth microdilution method; type: functional
Staphylococcus aureus [24] = test: Antibacterial activity against Staphylococcus aureus ATCC 29213 in presence of 25% serum by broth microdilution method; type: functional
Staphylococcus aureus [25] = test: Antibacterial activity against Staphylococcus aureus ATCC 29213 in presence of MgCl2 by broth microdilution method; type: functional
Pseudomonas aeruginosa = test: Antibacterial activity against Pseudomonas aeruginosa 25349 clinical isolate incubated for 18 to 24 hrs by broth microdilution method; type: functional
Staphylococcus aureus [26] = test: Antibacterial activity against Staphylococcus aureus ATCC 29213 incubated for 2 hrs in presence of sodium phosphate buffer at pH 2 by broth microdilution method; type: functional; settings: ATCC 29213, 2 h
Escherichia coli [27] = test: Antibacterial activity against Escherichia coli ATCC 25922 in presence of ZnCl2 by broth microdilution method; type: functional
Staphylococcus aureus [28] = test: Antibacterial activity against Staphylococcus aureus ATCC 29213 incubated for 2 hrs in presence of sodium phosphate buffer at pH 4 by broth microdilution method; type: functional; settings: ATCC 29213, 2 h
Staphylococcus aureus [29] = test: Antibacterial activity against Staphylococcus aureus ATCC 29213 in presence of KCl by broth microdilution method; type: functional
Escherichia coli [30] = test: Antibacterial activity against Escherichia coli ATCC 25922 in presence of KCl by broth microdilution method; type: functional
Staphylococcus aureus [31] = test: Antibacterial activity against Staphylococcus aureus ATCC 29213 incubated for 2 hrs in presence of sodium phosphate buffer at pH 10 by broth microdilution method; type: functional; settings: ATCC 29213, 2 h
Escherichia coli [32] = test: Antibacterial activity against Escherichia coli ATCC 25922 incubated for 2 hrs in presence of sodium phosphate buffer at pH 10 by broth microdilution method; type: functional; settings: ATCC 25922, 2 h
Escherichia coli [33] = test: Antibacterial activity against Escherichia coli ATCC 25922 in presence of NaCl by broth microdilution method; type: functional
Escherichia coli [34] = test: Antibacterial activity against Escherichia coli 20411 clinical isolate incubated for 18 to 24 hrs by broth microdilution method; type: functional
Escherichia coli [35] = test: Antibacterial activity against Escherichia coli ATCC 25922 in presence of 12.5% serum by broth microdilution method; type: functional
Escherichia coli [36] = test: Antibacterial activity against Escherichia coli ATCC 25922 in presence of FeCl3 by broth microdilution method; type: functional
Staphylococcus aureus [37] = test: Antibacterial activity against Staphylococcus aureus ATCC 29213 incubated for 18 to 24 hrs by broth microdilution method; type: functional
[38] = test system: Staphylococcus epidermidis; test: Antibacterial activity against Staphylococcus epidermidis ATCC 12228 incubated for 18 to 24 hrs by broth microdilution method; type: functional
Escherichia coli [39] = test: Antibacterial activity against Escherichia coli ATCC 25922 in presence of H202 by broth microdilution method; type: functional
Escherichia coli [40] = test: Antibacterial activity against Escherichia coli ATCC 25922 in presence of NH4Cl by broth microdilution method; type: functional
Escherichia coli [41] = test: Antibacterial activity against Escherichia coli ATCC 25922 in presence of 25% serum by broth microdilution method; type: functional
Escherichia coli [42] = test: Antibacterial activity against Escherichia coli UB1005 incubated for 18 to 24 hrs by broth microdilution method; type: functional

Work on `CC[C@H](C)[C@H](NC(=O)CN)C(=O)NCC(=O)N[C@@H](C)C(=O)N[C@H](C(=O)N[C@@H](CC(C)C)C(=O)N[C@@H](CCCCN)C(=O)N[C@H](C(=O)N[C@@H](CC(C)C)C(=O)N[C@H](C(=O)N[C@H](C(=O)NCC(=O)N[C@@H](CC(C)C)C(=O)N1CCC[C@H]1C(=O)N[C@@H](C)C(=O)N[C@@H](CC(C)C)C(=O)N[C@H](C(=O)N[C@@H](CO)C(=O)N[C@@H](Cc1c[nH]c2ccccc12)C(=O)N[C@H](C(=O)N[C@@H](CCCCN)C(=O)N[C@@H](CCCNC(=N)N)C(=O)N[C@@H](CCCCN)C(=O)N[C@@H](CCCNC(=N)N)C(=O)N[C@@H](CCC(N)=O)C(=O)N[C@@H](CCC(N)=O)C(N)=O)[C@@H](C)CC)[C@@H](C)CC)[C@@H](C)O)[C@@H](C)O)C(C)C)C(C)C` [MELITTIN] yielded an MIC (Staphylococcus aureus [1]) of 8 µM (≈ 22.8 µg/mL), an MIC (Staphylococcus aureus [2]) of 8 µM and an MIC (Escherichia coli [3]) of 64 µM. The MIC (Escherichia coli [4]) was 2 µM, the MIC (Staphylococcus aureus [5]) was 8 µM and the MIC (Staphylococcus aureus [6]) was 8 µM. It also gave an MIC (Escherichia coli [7]) of 2 µM (≈ 5.69 µg/mL), an MIC (Staphylococcus aureus [8]) of 16 µM and an MIC (Escherichia coli [9]) of 4 µM. It also gave an MIC (Staphylococcus aureus [10]) of 8 µM, an MIC (Escherichia coli [11]) of 4 µM and an MIC (Escherichia coli [12]) of 4 µM. For the same compound, the MIC (Escherichia coli [13]) was 2 µM (≈ 5.69 µg/mL), the MIC (Staphylococcus aureus [14]) was 8 µM and the MIC (Salmonella typhimurium) was 2 µM (≈ 5.69 µg/mL). The MIC (Escherichia coli [15]) was 4 µM, the MIC (Escherichia coli [16]) was 2 µM and the MIC (Staphylococcus aureus [17]) was 8 µM. For the same compound, the MIC (Staphylococcus aureus [18]) was 8 µM (≈ 22.8 µg/mL), the MIC (Staphylococcus aureus [19]) was 2 µM (≈ 5.69 µg/mL) and the MIC (Escherichia coli [20]) was 2 µM (≈ 5.69 µg/mL). For the same compound, the MIC (Staphylococcus aureus [21]) was 8 µM, the MIC (Staphylococcus aureus [22]) was 16 µM and the MIC (Staphylococcus aureus [23]) was 8 µM. The MIC (Staphylococcus aureus [24]) was 8 µM, the MIC (Staphylococcus aureus [25]) was 8 µM and the MIC (Pseudomonas aeruginosa) was 4 µM (≈ 11.4 µg/mL). For the same compound, the MIC (Staphylococcus aureus [26]) was 8 µM, the MIC (Escherichia coli [27]) was 4 µM and the MIC (Staphylococcus aureus [28]) was 8 µM. The MIC (Staphylococcus aureus [29]) was 8 µM, the MIC (Escherichia coli [30]) was 2 µM and the MIC (Staphylococcus aureus [31]) was 8 µM. The MIC (Escherichia coli [32]) was 4 µM, the MIC (Escherichia coli [33]) was 4 µM and the MIC (Escherichia coli [34]) was 8 µM (≈ 22.8 µg/mL). The MIC (Escherichia coli [35]) was 32 µM, the MIC (Escherichia coli [36]) was 2 µM and the MIC (Staphylococcus aureus [37]) was 8 µM (≈ 22.8 µg/mL). The MIC [38] was 0.5 µM (≈ 1.42 µg/mL), the MIC (Escherichia coli [39]) was 4 µM and the MIC (Escherichia coli [40]) was 2 µM. The MIC (Escherichia coli [41]) was 32 µM and the MIC (Escherichia coli [42]) was 2 µM (≈ 5.69 µg/mL).
